Earlier results as cited in article PMC8954540, “A New Class of PSMA-617-Based Hybrid Molecules for Preoperative Imaging and Intraoperative Fluorescence Navigation of Prostate Cancer” (Pharmaceuticals, 2022).

The chains behind the UniProt entries cited, without tags or fusion partners.
UniProt Q04609, whole entry: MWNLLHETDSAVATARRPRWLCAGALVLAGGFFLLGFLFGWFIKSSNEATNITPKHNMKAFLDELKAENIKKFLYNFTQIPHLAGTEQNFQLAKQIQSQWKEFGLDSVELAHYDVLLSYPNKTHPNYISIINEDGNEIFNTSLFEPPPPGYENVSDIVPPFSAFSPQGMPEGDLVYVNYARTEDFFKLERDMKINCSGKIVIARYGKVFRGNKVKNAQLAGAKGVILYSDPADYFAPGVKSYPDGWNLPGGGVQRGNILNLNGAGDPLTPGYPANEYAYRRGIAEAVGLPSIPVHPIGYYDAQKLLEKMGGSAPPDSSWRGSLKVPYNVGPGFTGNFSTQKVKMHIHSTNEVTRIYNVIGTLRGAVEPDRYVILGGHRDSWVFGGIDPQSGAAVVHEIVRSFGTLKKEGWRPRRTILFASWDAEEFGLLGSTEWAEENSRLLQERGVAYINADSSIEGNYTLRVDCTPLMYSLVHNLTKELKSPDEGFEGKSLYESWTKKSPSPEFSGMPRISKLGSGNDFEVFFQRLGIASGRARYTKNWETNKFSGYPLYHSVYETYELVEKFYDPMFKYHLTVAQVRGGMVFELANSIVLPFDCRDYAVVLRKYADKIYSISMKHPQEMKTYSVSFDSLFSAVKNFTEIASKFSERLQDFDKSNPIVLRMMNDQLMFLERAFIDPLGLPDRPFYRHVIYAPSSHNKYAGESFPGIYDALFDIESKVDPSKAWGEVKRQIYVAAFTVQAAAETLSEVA

Molecular target: PSMA (Homo sapiens, UniProt Q04609)
Conditions: radioligand of the competitive assay; cited from earlier work

O=C(O)CC[C@H](NC(=O)N[C@@H](CCCCNC(=O)CCCCCNC(=O)CCc1ccc(O)c(CN(CCN(CC(=O)O)Cc2cc(CCC(=O)NCCCCCC(=O)NCCCC[C@H](NC(=O)N[C@@H](CCC(=O)O)C(=O)O)C(=O)O)ccc2O)CC(=O)O)c1)C(=O)O)C(=O)O
Kd: 3.8 nM
